{"sequences": {"note": "Protein sequences, listed by entry. Tags and fused reporters are not part of them.", "UniProt P61169, whole entry": "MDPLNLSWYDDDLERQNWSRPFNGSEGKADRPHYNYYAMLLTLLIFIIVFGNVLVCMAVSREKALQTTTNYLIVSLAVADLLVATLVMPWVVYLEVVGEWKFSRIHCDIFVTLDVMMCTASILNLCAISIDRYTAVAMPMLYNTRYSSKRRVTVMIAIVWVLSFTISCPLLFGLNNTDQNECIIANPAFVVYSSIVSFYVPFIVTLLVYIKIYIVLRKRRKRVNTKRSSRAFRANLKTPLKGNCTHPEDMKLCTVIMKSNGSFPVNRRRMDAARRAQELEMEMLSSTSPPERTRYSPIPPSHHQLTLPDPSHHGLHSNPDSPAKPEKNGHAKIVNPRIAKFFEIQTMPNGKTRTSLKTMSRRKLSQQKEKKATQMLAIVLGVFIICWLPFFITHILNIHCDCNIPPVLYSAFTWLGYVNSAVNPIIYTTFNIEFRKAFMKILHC"}, "source": "patent US20060062859A1", "about": "“Composition and method to optimize and customize nutritional supplement formulations by measuring genetic and metabolomic contributing factors to disease diagnosis, stratification, prognosis, metabolism, and therapeutic outcomes” (priority 2004, published 2006)", "origin": "cited, not measured here", "molecular_target": "T1, D2 receptors in the Nacc (Rattus norvegicus, UniProt P61169)", "T1 construct": "from tissue; host or cells: nucleus accumbens in vivo; study cited from the literature", "conditions": "bilateral, nmol/side; cited from earlier work"}
{"smiles": "CCCN1CCC[C@@H]2Cc3n[nH]cc3C[C@H]21", "note": "[quinpirole]", "values": [{"measurement": "persistent phase of formalin-induced nociception", "result": "inhibited"}]}
